## Yeast mating assay 2: variants of the scFv Ab-95

Values reported by Engelhart et al. 2022, doi:10.1038/s41597-022-01779-4 (FLAb copy).

The target is the same throughout: PDVDLGDISGINAS, from the HR2 region of SARS-CoV-2 spike.

Ab-95 is the parent antibody, in scFv form: VH, then the linker GGGGSGGGGSGGGGS, then VL. The heavy chain is unchanged in all variants.
VH: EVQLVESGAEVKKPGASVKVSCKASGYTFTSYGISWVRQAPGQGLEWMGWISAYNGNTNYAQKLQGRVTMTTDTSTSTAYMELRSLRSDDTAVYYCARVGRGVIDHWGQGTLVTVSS
VL: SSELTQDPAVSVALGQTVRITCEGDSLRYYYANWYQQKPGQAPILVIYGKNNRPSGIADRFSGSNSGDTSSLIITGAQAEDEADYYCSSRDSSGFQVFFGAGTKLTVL

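The parent was found by panning a naive human phage display library on the peptide. AAYL52 was designed without a model: most single CDR substitutions and a random sample of double and triple ones. In AlphaSeq, yeast of one mating type display the scFv and yeast of the other type display the target. Binding brings cells together so that they mate, and sequencing counts the barcode pairs among the diploids. The ratio of observed to expected reads was calibrated, replicate by replicate, on BCL2-family standards whose Kd was known from biolayer interferometry. Mating was done three times.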

The parent's light chain CDRs are EGDSLRYYYAN, GKNNRPS, SSRDSSGFQVF; each variant's own CDRs replace them letter for letter.
This list gathers variants with a substitution at E23 (VL, numbered from residue 1).
The Kd shown is the geometric mean over detected replicates; a lower Kd is a better binder.
An entry "nd" has no value in the source: the pair was not observed among the diploids in any replicate. This suggests poor binding but is not conclusive.
The list is sorted by this average, lowest first, undetected variants last.
Three control strains display no target. For library AAYL52, 28% of the pairings with them gave a signal, with a median of 8.2 µM and one signal in twenty below 800 nM, so weak values seen in few replicates may be background. The control count says in how many pairings with the empty strains this scFv gave a signal.

Variant MGDSLRYYDAN / GKNIRPS / SSRDSSGFQVF gave 24 nM (3 of 3 replicates; controls 5 of 9). With KGDSLRYYYAN / GKNNRPS / SGRDHSGFQVF the result was 33 nM (3 of 3 replicates; controls 2 of 9). For CHESLRYYYAN / GKNNRPS / SSRDSSGFQVF, the assay gave 51 nM (1 of 3 replicates; controls 0 of 9). Variant RGDSLRYYYAN / GKNNRPS / SSRDSSGFQVF gave 54 nM (3 of 3 replicates; controls 5 of 9). For RGSSLRYYYAN / GKNNRPS / SSRDSSGFQVF, the assay gave 67 nM (3 of 3 replicates; controls 5 of 9).

Variant RGDSLGYYYAN / GKNNRPS / SSRDSSGFQLF showed 77 nM (3 of 3 replicates; controls 1 of 9). Variant QGDSLRYYEAN / GKNNRPS / SSRDSFGFQVF showed 120 nM (3 of 3 replicates; controls 1 of 9). With VGDSLRYYYAN / GKNNRPS / SSRDSYGFQVF the result was 160 nM (3 of 3 replicates; controls 0 of 9). For FGDSLRYVYAN / GKNNRPS / SSRDSSGFQVF, the assay gave 320 nM (3 of 3 replicates; controls 4 of 9). With SGDSNRYYYAN / GKNNRPS / SSRDSSGFQVF the result was 400 nM (3 of 3 replicates; controls 7 of 9).

With KGDSLRYYYAN / QKNNRPV / SSRDSSGFQVF the result was 960 nM (3 of 3 replicates; controls 1 of 9). Variant MGDSLRYYYAN / AKNNRPS / SSRDSSGFQVF gave 960 nM (2 of 3 replicates; controls 1 of 9). Variant IDDSLRYYYAN / GKNNRPS / SSRDSSGFQVM gave 1.0 µM (1 of 3 replicates; controls 0 of 9). Variant HSDSLRYYYAN / GKENRPS / SSRDSSGFQVF showed 1.2 µM (3 of 3 replicates; controls 2 of 9). For MGDSLRYLYAN / GKNNRPS / SSRDSSGFSVF, the assay gave 1.2 µM (3 of 3 replicates; controls 5 of 9).

Variant LGDSLRYYYAN / GKNNRPS / SSWISSGFQVF showed 1.3 µM (2 of 3 replicates; controls 1 of 9). For CGDSLRYYYAN / GKNNRPS / SSRDSKGFQVF, the assay gave 1.5 µM (3 of 3 replicates; controls 0 of 9). Variant VGDSRRYYYAN / GKNNRPS / SSRDSSGFQVF showed 2.4 µM (1 of 3 replicates; controls 1 of 9). For AWDSTRYYYAN / GKNNRPS / SSRDSSGFQVF, the assay gave 2.8 µM (3 of 3 replicates; controls 5 of 9). Variant MGDSLRYIYWN / GKNNRPS / SSRDSSGFQVF showed 3.2 µM (3 of 3 replicates; controls 5 of 9).

With SGDSLRYYYNN / GKNNRPS / SSRCSSGFQVF the result was 3.5 µM (3 of 3 replicates; controls 2 of 9). Variant AGDSLRYYYAN / GTNNRPS / SSRDSSGGQVF showed 3.5 µM (3 of 3 replicates; controls 4 of 9). Variant CGDSLRYYYAN / GKNNYGS / SSRDSSGFQVF showed 3.8 µM (2 of 3 replicates; controls 3 of 9). For VGDSLRYYYAN / NKNNAPS / SSRDSSGFQVF, the assay gave 5.6 µM (3 of 3 replicates; controls 4 of 9). Variant QGDSLRYYYAN / GKVNRPS / SSRDSSGFQGF showed 15 µM (2 of 3 replicates; controls 4 of 9).

With MGDSLRYYYAN / GKNNRPS / SSYDSSGFQVF the result was 17 µM (2 of 3 replicates; controls 0 of 9). Variant CGDSLRYYYGN / GKNNRPS / SWRDSSGFQVF gave 66 µM (3 of 3 replicates; controls 3 of 9). For TGDSLRYYYLN / IKNNRPS / SSRDSSGFQVF, the assay gave 86 µM (1 of 3 replicates; controls 0 of 9). Variant WGDSLRYYINN / GKNNRPS / SSRDSSGFQVF gave nd (0 of 3 replicates; controls 4 of 9). For PGDSLRYYYTN / GKNNRPS / SSRDSIGFQVF, the assay gave nd (0 of 3 replicates; controls 3 of 9).

With YGDELRYYYAF / GKNNRPS / SSRDSSGFQVF the result was nd (0 of 3 replicates; controls 0 of 9).

The first 3 variants above that were never detected:

| CDR-L1 | CDR-L2 | CDR-L3 | Kd | replicates with signal | control signals |
|---|---|---|---|---|---|
| WGDSLRYYINN | GKNNRPS | SSRDSSGFQVF | nd | 0/3 | 4/9 |
| PGDSLRYYYTN | GKNNRPS | SSRDSIGFQVF | nd | 0/3 | 3/9 |
| YGDELRYYYAF | GKNNRPS | SSRDSSGFQVF | nd | 0/3 | 0/9 |